In ChEMBL document CHEMBL5029174, “Discovery of structurally distinct tricyclic M4 positive allosteric modulator (PAM) chemotypes - Part 2” (Bioorg Med Chem Lett, 2021):
Activity calls are given as the source filed them. No cut-off for these calls is given here.

Amino acid sequences for entries named in this document (tags omitted).
UniProt P08173, whole entry: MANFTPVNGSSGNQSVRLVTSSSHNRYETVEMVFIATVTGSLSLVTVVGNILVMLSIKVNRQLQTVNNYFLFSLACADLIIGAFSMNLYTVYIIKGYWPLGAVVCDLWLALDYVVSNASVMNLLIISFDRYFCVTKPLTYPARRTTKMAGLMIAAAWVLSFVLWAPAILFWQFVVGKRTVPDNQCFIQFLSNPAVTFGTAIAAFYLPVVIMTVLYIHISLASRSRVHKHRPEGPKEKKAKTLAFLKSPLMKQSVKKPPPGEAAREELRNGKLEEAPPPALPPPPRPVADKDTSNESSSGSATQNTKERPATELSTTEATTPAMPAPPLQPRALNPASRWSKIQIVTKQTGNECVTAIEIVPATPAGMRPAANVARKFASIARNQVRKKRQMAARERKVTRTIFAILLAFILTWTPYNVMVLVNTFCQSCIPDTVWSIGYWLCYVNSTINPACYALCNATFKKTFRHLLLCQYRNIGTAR

Molecular target: Muscarinic acetylcholine receptor M4 (Homo sapiens, UniProt P08173)
Experiment: Positive allosteric modulation of human muscarinic acetylcholine M4/Gqi5 receptor expressed in CHO cells in presence of acetylcholine at EC20 concentration by calcium mobilization assay relative to control
Format: functional, cell-based
Procedure, shortened: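 CHO cells stably expressing human M4 with a chimeric Gq protein were tested by calcium mobilization in the presence of an EC20 fixed concentration of acetylcholine. EC50 values come from concentration-response curves. Efficacy is given as % of the maximal acetylcholine response. Each value is n = 1 independent experiment run in triplicate.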

SMILES | %max
Cc1cc(C)c2c(n1)sc1c(NCc3ccc(F)c(Cl)c3)ncnc12 | inactive
Cc1cc(C)c2c(n1)sc1c(C3CCN(CC4CC4)CC3)ncnc12 | inactive
Cc1cc(C)c2c(n1)sc1c(NCc3ccc4sccc4c3)ncnc12 | inactive
Cc1cc(C)c2c(n1)oc1c(NCc3ccc(C(C)(C)O)cc3)ncnc12 | inactive
Cc1cc(C)c2c(n1)oc1c(NC3CN(c4ncc(C(F)(F)F)cn4)C3)ncnc12 | inactive
Cc1cc(C)c2c(n1)sc1c(NCc3ccc(OC(F)(F)F)cc3)ncnc12 | inactive
Cc1cc(C)c2c(n1)oc1c(N3CCCC3)ncnc12 | inactive
Cc1cc(C)c2c(n1)sc1c(C3CCN(c4cncc(F)c4)CC3)ncnc12 | inactive
Cc1ccc(CNc2ncnc3c2sc2nc(C)cc(C)c23)c(F)c1 | inactive
COc1ccc(CNc2ncnc3c2oc2nc(C)cc(C)c23)cc1F | inactive
Cc1cc(C)c2c(n1)sc1c(NCc3ccc(C(F)(F)F)cn3)ncnc12 | inactive
